Laboratory results: ChEMBL document CHEMBL1129522, “Inhibitors of acyl-CoA:cholesterol O-acyltransferase. 17. Structure-activity relationships of several series of compounds derived from N-chlorosulfonyl isocyanate” (J Med Chem, 1996)

Target: T1, Sterol O-acyltransferase 1 (Rattus norvegicus, UniProt O70536)
T1 sequence (O70536 whole entry): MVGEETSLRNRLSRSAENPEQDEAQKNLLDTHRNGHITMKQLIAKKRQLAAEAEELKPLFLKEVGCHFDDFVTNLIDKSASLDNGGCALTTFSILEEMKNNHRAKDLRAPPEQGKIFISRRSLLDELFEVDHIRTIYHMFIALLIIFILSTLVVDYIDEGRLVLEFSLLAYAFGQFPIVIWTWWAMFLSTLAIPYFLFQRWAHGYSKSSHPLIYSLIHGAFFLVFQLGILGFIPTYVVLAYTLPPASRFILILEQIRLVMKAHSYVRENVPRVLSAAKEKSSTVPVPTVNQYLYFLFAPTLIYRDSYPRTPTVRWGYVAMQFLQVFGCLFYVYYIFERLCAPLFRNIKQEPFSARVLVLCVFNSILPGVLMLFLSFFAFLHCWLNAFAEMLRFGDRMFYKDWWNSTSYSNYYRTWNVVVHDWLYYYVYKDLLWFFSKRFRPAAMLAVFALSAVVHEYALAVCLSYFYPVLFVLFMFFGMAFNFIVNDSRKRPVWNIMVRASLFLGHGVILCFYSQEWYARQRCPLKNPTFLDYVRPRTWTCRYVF
Assay: In vitro inhibitory activity against acyl coenzyme A:cholesterol acyltransferase 1 in microsomes of rat liver

Compound	IC50 [µM]
Cc1cc(C(C)(C)C)c(OC(=O)NS(=O)(=O)N(CCCN(C)C)CCCN(C)C)c(C(C)(C)C)c1	164
CCCCCCCCCCC(C)OS(=O)(=O)NC(=O)Nc1c(C(C)C)cccc1C(C)C (configuration not stated)	16
